The subject of the assay is MCF-7 cells. Put plainly: Cell proliferation, [3H]thymidine incorporation. The assay is classed as cell-based. The conditions noted are these: in comparison with 1α,25(OH)2D3 as control (100% activity); 72 hours incubation. On the procedure: The compound of the present invention was evaluated for its effect on cell proliferation. […] The cultures were maintained at 37° C. in an atmosphere of humidified air containing 5% CO2. The MCF-7 cells were seeded at approximately 5×10^3 cells/well in the DMEM modified medium in a 96-well microtiter plate. […] Finally, 1 μCi of [^3H]thymidine was added to each well and the cells were harvested after a further 4 hour incubation period. The cells were harvested with a Packard Harvester and the cell count measured by a Packard Topcount System.
Background: Uptake of a labelled nucleoside into DNA is a usual measure of proliferation.

These results are taken from US20060135491A1, “Vitamin D3 analog useful for the treatment of osteoporosis” (priority 2004, published 2006).

With `C=C1/C(=C\C=C2/CCC[C@]3(C)[C@@H]([C@H](C)CCCC(C)(C)O)CC[C@@H]23)C[C@@H](O)C[C@@H]1O` [1α,25(OH)2D3, 1α,25-dihydroxyvitamin D3], the “MCF-7 cell proliferation, percentage activity (at 50% of the dose response)” value came out at 100%.
